From ChEMBL document CHEMBL3797124, “Synthesis of azepino[4,5-b]indol-4-ones via MCR/free radical cyclization and in vitro-in silico studies as 5-Ht₆R ligands” (Bioorg Med Chem Lett, 2016)

By UniProt entry, the sequences of proteins in these tests, tags left out.
UniProt P31388, whole entry: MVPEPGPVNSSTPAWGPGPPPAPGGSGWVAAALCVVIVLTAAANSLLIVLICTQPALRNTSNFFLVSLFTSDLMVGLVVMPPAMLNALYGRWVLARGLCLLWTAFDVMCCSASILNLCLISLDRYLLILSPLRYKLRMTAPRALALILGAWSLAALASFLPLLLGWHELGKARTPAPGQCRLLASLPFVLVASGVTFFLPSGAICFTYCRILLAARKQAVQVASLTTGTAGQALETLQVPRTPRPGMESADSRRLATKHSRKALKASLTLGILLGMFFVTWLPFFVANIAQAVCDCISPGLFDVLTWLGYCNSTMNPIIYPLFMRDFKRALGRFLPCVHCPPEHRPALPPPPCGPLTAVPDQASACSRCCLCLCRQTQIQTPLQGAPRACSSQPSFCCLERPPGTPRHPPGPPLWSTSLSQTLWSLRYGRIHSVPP

Legend:
[1] = target: T1, 5-hydroxytryptamine receptor 6 (Rattus norvegicus, UniProt P31388); test: Displacement of [3H]-LSD from recombinant rat 5-Ht6 receptor expressed in HEK293 cells after 120 mins by liquid scintillation counting; assay type: cell-based
[2] = target: T1, 5-hydroxytryptamine receptor 6; test: Displacement of [3H]-LSD from rat 5-Ht6 receptor expressed in HEK cells after 60 mins by liquid scintillation counting; assay type: cell-based, HEK293
[3] = target: T1, 5-hydroxytryptamine receptor 6; test: Displacement of [3H]-5HT from recombinant rat 5-Ht6 receptor expressed in HEK293 cells after 120 mins by liquid scintillation counting; assay type: cell-based

CSc1ccc2c(c1)C(N1CCN(C)CC1)Cc1ccccc1S2 (stereo not drawn) [METITEPINE]
Ki [1]: 100 nM
Ki [2]: 3.8 nM
Ki [3]: 100 nM
